Reference: patent publication US6569353B1, “Reactive decontamination formulation” (dated 2003)

Experiments:
[1] = CEES oxidation in gel (Examples 1, 2); details: 5 minutes; 100:1 molar excess of oxidant to surrogate
[2] = DEMP oxidation in gel at 100:1 (Example 3); details: after 30 min; 100:1 molar excess of oxidant to surrogate
[3] = Dem-S oxidation in gel at 100:1 (Example 4); details: 5 minutes; 100:1 molar excess of oxidant to surrogate
[4] = CEES oxidation and by-products, liquid formulation (Example 12); details: liquid state, oxidant to CEES 10:1

2KHSO5.KHSO4.K2SO4
oxidation of CEES [1]: to completion | DEMP eliminated [2]: 11% | oxidation of Dem-S [3]: to completion | CEES destroyed ([4]; 3 minutes): 100% | by-products detected in CEES oxidation ([4]; 3 minutes): substantial amount of chloroethyl ethyl sulfone | by-products of CEES oxidation ([4]; 90 minutes): still present
